What is called IC50 is the concentration at which inhibition is half-maximal.

Test [1] addresses T1, γ-secretase (Homo sapiens, UniProt P49768). Description: Screening for γ-secretase-modulating activity: Aβ42 in supernatant of SKNBE2 cells carrying hAPP 695 wild type (Alphalisa). The method, then: (§1) Screening was carried out using SKNBE2 human neuroblastoma cells carrying the hAPP 695—wild type, grown in Dulbecco's Modified Eagle's Medium/Nutrient mixture F-12 (DMEM/NUT-mix F-12) (HAM) provided by Invitrogen (cat no. 10371-029) containing 5% Serum/Fe supplemented with 1% non-essential amino acids, 1-glutamine 2 mM, Hepes 15 mM, penicillin 50 U/ml (units/ml) en streptomycin 50 μg/ml. Cells were grown to near confluency.
(§2) The screening was performed using a modification of the assay as described in Citron et al (1997) Nature Medicine 3: 67. Briefly, cells were plated in a 384-well plate at 10^4 cells/well in Ultraculture (Lonza, BE12-725F) supplemented with 1% glutamine (Invitrogen, 25030-024), 1% non-essential amino acid (NEAA), penicillin 50 U/ml en streptomycin 50 μg/ml in the presence of test compound at different test concentrations. The cell/compound mixture was incubated overnight at 37° C., 5% CO2. The next day the media were assayed by two sandwich immuno-assays, for Aβ42 and Aβ total.
(§3) Aβtotal and Aβ42 concentrations were quantified in the cell supernatant using the Aphalisa technology (Perkin Elmer). Alphalisa is a sandwich assay using biotinylated antibody attached to streptavidin coated donorbeads and antibody conjugated to acceptor beads. In the presence of antigen, the beads come into close proximity. The excitation of the donor beads provokes the release of singlet oxygen molecules that trigger a cascade of energy transfer in the acceptor beads, resulting in light emission. To quantify the amount of Aβ42 in the cell supernatant, monoclonal antibody specific to the C-terminus of Aβ42 (JRF/cAβ42/26) was coupled to the receptor beads and biotinylated antibody specific to the N-terminus of Aβ (JRF/AβN/25) was used to react with the donor beads. To quantify the amount of Aβtotal in the cell supernatant, monoclonal antibody specific to the N-terminus of Aβ (JRF/AβN/25) was coupled to the receptor beads and biotinylated antibody specific to the mid region of Aβ (biotinylated 4G8) was used to react with the donor beads.
(§4) To obtain the values reported in Table 3, the data are calculated as percentage of the maximum amount of amyloid Beta 42 measured in the absence of the test compound. The sigmoidal dose response curves were analyzed using non-linear regression analysis with percentage of the control plotted against the log concentration of the compound. A 4-parameter equation was used to determine the IC50.
Background: Bead proximity is the source of the signal in Alpha formats.

In test [2] the target is T1, γ-secretase. Briefly: Screening for γ-secretase-modulating activity: Aβtotal in supernatant of SKNBE2 cells carrying hAPP 695 wild type (Alphalisa). The method, then: as §1, §2, §3, §4
The test system of the next test is Aβ42. Description: In vivo efficacy: brain soluble Aβ42 in non-transgenic rodents (MSD electrochemiluminescence multiplex). Conditions: dose 30 mg/kg oral dosing, brain soluble fraction, animals sacrificed after 4 h. An excerpt:
(§5) To determine whether acute administration of an Aβ42 lowering agent would reduce Aβ42 levels in vivo, non-transgenic rodents, e.g. mice or rats were used. Animals treated with the Aβ42 lowering agent were examined and compared to those untreated or treated with vehicle and brain levels of soluble Aβ42, Aβ40, Aβ38, and Aβ37 were quantitated by Meso Scale Discovery's (MSD) electrochemiluminescence detection technology. Treatment periods varied from hours (h) to days and were adjusted based on the results of the Aβ42 lowering once a time course of onset of effect could be established.
(§6) A typical protocol for measuring Aβ42 lowering in vivo is shown but it is only one of many variations that could be used to optimize the levels of detectable Aβ. For example, Aβ42 lowering compounds were formulated in 20% of Captisol® (a sulfo-butyl ether of β-cyclodextrin) in water or 20% hydroxypropyl βcyclodextrin. The Aβ42 lowering agents were administered as a single oral dose or by any acceptable route of administration to overnight fasted animals. After 4 h, the animals were sacrificed and Aβ42 levels were analysed.
(§7) Blood was collected by decapitation and exsanguinations in EDTA-treated collection tubes. Blood was centrifuged at 1900 g for 10 minutes (min) at 4° C. and the plasma recovered and flash frozen for later analysis. The brain was removed from the cranium and hindbrain. The cerebellum was removed and the left and right hemisphere were separated. The left hemisphere was stored at −18° C. for quantitative analysis of test compound levels. The right hemisphere was rinsed with phosphate-buffered saline (PBS) buffer and immediately frozen on dry ice and stored at −80° C. until homogenization for biochemical assays.
(§8) Mouse brains from non-transgenic animals were resuspended in 8 volumes of 0.4% DEA (diethylamine)/50 mM NaCl containing protease inhibitors (Roche-11873580001 or 04693159001) per gram of tissue, e.g. for 0.158 g brain, add 1.264 ml of 0.4% DEA. All samples were homogenized in the FastPrep-24 system (MP Biomedicals) using lysing matrix D (MPBio #6913-100) at 6 m/s for 20 seconds. […] Nine parts of supernatant were neutralized with 1 part 0.5 M Tris-HCl pH 6.8 and used to quantify Aβ.
(§9) To quantify the amount of Aβ42, Aβ40, Aβ38, and Aβ37 in the soluble fraction of the brain homogenates, simultaneous specific detection of Aβ42, Aβ40, Aβ38, and Aβ37 was performed using MSD's electro-chemiluminescence multiplex detection technology. […] Following this incubation and subsequent wash steps the assay was finished by adding read buffer according to the manufacturer's instructions (Meso Scale Discovery, Gaitherburg, Md.).
(§10) The SULFO-TAG emits light upon electrochemical stimulation initiated at the electrode. MSD Sector instrument SI6000 was used for signal read-out. […]

In the next test the test system is Aβ40. Briefly: In vivo efficacy: brain soluble Aβ40 in non-transgenic rodents (MSD electrochemiluminescence multiplex). To be noted: dose 30 mg/kg oral dosing, brain soluble fraction, animals sacrificed after 4 h.
Text: as §5, §6, §7, §8, §9, §10

Setting [3] is: untreated animals (Ctrl) set at 100, tested form: HCl.
Setting [4] is: read-out: IC50 Aβ42, SKNBE2 human neuroblastoma cells carrying hAPP 695 wild type, overnight incubation, Aβ42 in cell supernatant.
Setting [5] is: read-out: IC50 Aβtotal, SKNBE2 human neuroblastoma cells carrying hAPP 695 wild type, overnight incubation, Aβtotal in cell supernatant.
Where [6] appears, read: untreated animals (Ctrl) set at 100.

A value given as a limit tells only on which side of the number the result lay.

As to `Cc1cn(-c2ccc3n(c2=O)C[C@@H](C)N(CC2(c4cc(C(F)(F)F)cc(C(F)(F)F)c4)CC2)C3=O)cn1`, the half-inhibitory concentration (IC50) is 0.03 µM at γ-secretase [1] (read-out: IC50 Aβ42, SKNBE2 human neuroblastoma cells carrying hAPP 695 wild type, overnight incubation, Aβ42 in cell supernatant, tested form: HCl) and > 10 µM at γ-secretase [2] (read-out: IC50 Aβtotal, SKNBE2 human neuroblastoma cells carrying hAPP 695 wild type, overnight incubation, Aβtotal in cell supernatant, tested form: HCl). The “Aβ42 (% vs Ctrl)_Mean” value with Aβ42 (setting [3]) came out at 41 % vs Ctrl. The “Aβ40 (% vs Ctrl)_Mean” value in the test on Aβ40 (setting [3]) is recorded as 57 % vs Ctrl.
Turning to `Cc1cn(-c2ccc3n(c2=O)CCN(CC2(c4cc(C(F)(F)F)cc(C(F)(F)F)c4)CCC2)C3=O)cn1`, the IC50 at γ-secretase [1] (setting [4]) is 0.03 µM; at γ-secretase [2] (setting [5]), > 10 µM. The “Aβ42 (% vs Ctrl)_Mean” value in the test on Aβ42 (setting [6]) is recorded as 80 % vs Ctrl. Further, in the test with Aβ40 (setting [6]), the “Aβ40 (% vs Ctrl)_Mean” value worked out at 97 % vs Ctrl.
`Cc1cn(-c2ccc3n(c2=O)C[C@H](C)N(Cc2ccc(Cl)c(Cl)c2)C3=O)cn1`: the values for the half-inhibitory concentration (IC50) at γ-secretase [1] (setting [4]) and at γ-secretase [2] (setting [5]) were 1.15 µM and > 10 µM, respectively.
Take `Cc1cn(-c2ccc3n(c2=O)CCN(CC2(c4cc(C(F)(F)F)cc(C(F)(F)F)c4)CC2)C3=O)cn1`: the IC50 on γ-secretase [1] (setting [4]) was 0.04 µM; at γ-secretase [2] (setting [5]) it was > 10 µM. The “Aβ42 (% vs Ctrl)_Mean” value in the test with Aβ42 (setting [6]) is listed as 66 % vs Ctrl. Besides, in the test with Aβ40 (setting [6]), the “Aβ40 (% vs Ctrl)_Mean” value was determined as 84 % vs Ctrl.
With `Cc1cn(-c2ccc3n(c2=O)C[C@@H](C)N(C(C)c2cc(Cl)cc(C(F)(F)F)c2)C3=O)cn1` (single isomer, unassigned) [130], the IC50 on γ-secretase [1] (setting [4]) was 0.16 µM; at γ-secretase [2] (setting [5]), > 10 µM. The “Aβ42 (% vs Ctrl)_Mean” value with Aβ42 (setting [6]) amounted to 67 % vs Ctrl. For the same molecule, in the test with Aβ40 (setting [6]), the “Aβ40 (% vs Ctrl)_Mean” value turned out to be 114 % vs Ctrl.

(Values after patent US20150141411A1, “SUBSTITUTED 3,4-DIHYDRO-2H-PYRIDO[1,2-A]PYRAZINE-1,6-DIONE DERIVATIVES USEFUL FOR THE TREATMENT OF (INTER ALIA) ALZHEIMER'S DISEASE” (Janssen Pharmaceuticals, Inc., priority 2012, published 2015).)
